Data reported in PubChem BioAssay AID1347075 (National Center for Advancing Translational Sciences (NCATS), 2019).
Only a part is listed here, and it is no random draw. Results filed as inconclusive are left out. Calls of active or inactive are those of the source. Calls follow the shape of the dose curve; as a rule, active = well fitted cell-killing curve with a large enough effect; inconclusive = small, poorly fitted or top-dose-only effect, or effect the other way; inactive = flat fitted curve, though single readings scatter.

experiment: qHTS assay for MDR1-selective chemotherapeutics: Primary screen using the parental adenocarcinoma cell KB-3-1; settings: KB-3-1 viability, CellTiter-Glo ATP luminescence, 72 h; series mostly up to 46.1 µM; activity change, negative = cytotoxic: at the top concentration; also: nearly all actives have a fitted effect of over 60% in size
Method in brief: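 KB-3-1 cells, DMEM (no phenol red) + 10% FBS; compound by pin transfer, 72 h, 37 °C. Readout: CellTiter-Glo luminescence after 10 min. Data normalized, curve-fitted.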
% is scaled to controls: 0 for no effect and ±100 for the full control effect; potency is read from the fitted curve at half-maximal effect.

Q: Which “activity change, negative = cytotoxic” value does the source give for Cc1ccc(NCCc2c([N+](=O)[O-])cc([N+](=O)[O-])cc2[N+](=O)[O-])cc1 here?
A: inactive: -1.17%

Q: Which “activity change, negative = cytotoxic” value does the source give for Nc1cccc2c([As](=O)(O)O)cccc12 here?
A: inactive: -5.93%

Q: Which “activity change, negative = cytotoxic” value does the source give for CCCOP(=S)(Nc1nc(N)cc(=O)[nH]1)OCCC here?
A: inactive: 1.95%

Q: Which “activity change, negative = cytotoxic” value does the source give for COc1cc(C2NCCC3(OCCO3)C2(C)C)cc(OC)c1OC (stereo unspecified) here?
A: inactive: 0.0525%

Q: For CCOP(=O)(Nc1cccc2ccccc12)OCC, which “activity change, negative = cytotoxic” value is on record?
A: inactive: 0.339%

Q: With O=C(OC1CN2CCC1CC2)c1ccc(Cl)cc1 (stereo unspecified) as the compound, how does the “activity change, negative = cytotoxic” value read?
A: inactive: -1.94%

Q: For O=[As](O)(O)c1cccnc1, which “activity change, negative = cytotoxic” value is on record?
A: inactive: 9.75%

Q: With COc1cc(C(=O)NCC2(N3CCOCC3)CCCCC2)cc(Cl)c1OC(C)C as the compound, how does the “activity change, negative = cytotoxic” value read?
A: inactive: -0.0907%

Q: For CS(=O)(=O)c1ccc(Cl)c(NC(=O)COC(=O)C(O)(c2ccccc2)c2ccccc2)c1, which “activity change, negative = cytotoxic” value is on record?
A: inactive: 26.8%

Q: With Cc1cccc(OCC(=O)OC2CN3CCC2CC3)c1 (stereo unspecified) as the compound, how does the “activity change, negative = cytotoxic” value read?
A: inactive: -0.641%

Q: Which “activity change, negative = cytotoxic” value does the source give for O=[As](O)(c1cccc(O)c1)c1cccc(O)c1 here?
A: inactive: 6.96%

Q: For NC(=O)Nc1ccc([As](=O)(O)O)cc1, which “activity change, negative = cytotoxic” value is on record?
A: inactive: -5.11%

Q: With N#CCCN(C(=O)COC(=O)C(O)(c1ccccc1)c1ccccc1)c1ccc(F)cc1 as the compound, how does the “activity change, negative = cytotoxic” value read?
A: inactive: -3.22%

Q: With CCOP1(=S)c2c(C)nn(CCC#N)c2N=C(c2ccc(F)cc2)N1C (stereo unspecified) as the compound, how does the “activity change, negative = cytotoxic” value read?
A: inactive: 2%

Q: With CN(C(=O)Cc1ccccc1)[C@@H]1CC[C@]2(CCCO2)C[C@H]1N1CCCC1 as the compound, how does the “activity change, negative = cytotoxic” value read?
A: inactive: 0%

Q: Which “activity change, negative = cytotoxic” value does the source give for O=[N+]([O-])c1ccc2c(c1)nnn2O here?
A: inactive: -5.96%

Q: Which “activity change, negative = cytotoxic” value does the source give for CN(C(=O)Cc1ccc(Cl)c(Cl)c1)[C@H]1CC[C@@]2(CCCO2)C[C@@H]1N1CCCC1 here?
A: inactive: 0%

Q: With CCOP1(=S)c2c(C)nn(CCC#N)c2N=C(c2ccccc2F)N1C (stereo unspecified) as the compound, how does the “activity change, negative = cytotoxic” value read?
A: inactive: 0%

Q: With O=P(Nc1nccs1)(Oc1ccccc1)Oc1ccccc1 as the compound, how does the “activity change, negative = cytotoxic” value read?
A: inactive: 2.07%

Q: Which “activity change, negative = cytotoxic” value does the source give for O=P(Nc1nccs1)(c1ccccc1)c1nc2ccccc2s1 (stereo unspecified) here?
A: inactive: -4.01%

Q: With CS(=O)(=O)c1cc([N+](=O)[O-])c2no[n+]([O-])c2c1 as the compound, how does the “activity change, negative = cytotoxic” value read?
A: inactive: -9.17%

Q: Which “activity change, negative = cytotoxic” value does the source give for Nc1ccccc1[As](=O)(O)c1ccccc1 here?
A: inactive: 1.71%

Q: For O=C(O)COc1ccc([As](=O)(O)O)cc1[N+](=O)[O-], which “activity change, negative = cytotoxic” value is on record?
A: inactive: 5.41%

Q: With ClCCSc1nnc(-c2cccnc2)o1 as the compound, how does the “activity change, negative = cytotoxic” value read?
A: inactive: 5.74%

Q: For O=Cc1ccc(NCCCl)cc1, which “activity change, negative = cytotoxic” value is on record?
A: inactive: 6.69%

Q: For COC(=O)C1(C)COP(=O)(N2CCCCCC2)OC1 (stereo unspecified), which “activity change, negative = cytotoxic” value is on record?
A: inactive: 0.138%

Q: With CC(C)c1ccc(OP(=O)(Nc2ccccn2)Oc2ccccc2F)cc1 (stereo unspecified) as the compound, how does the “activity change, negative = cytotoxic” value read?
A: inactive: -15%

Q: With CC(C)NC(=O)NP(=O)(Oc1ccccc1)Oc1ccccc1 as the compound, how does the “activity change, negative = cytotoxic” value read?
A: inactive: 3.07%

Q: For CCN(CC)C(=S)SC(NC=O)C(Cl)(Cl)Cl (stereo unspecified), which Potency is on record?
A: active: 5.17 µM

Q: For O=C(OC1CN2CCC1CC2)c1cccc2[nH]cnc12 (stereo unspecified), which “activity change, negative = cytotoxic” value is on record?
A: inactive: 4.22%

Q: With O=[As](O)(c1ccc(O)cc1)c1ccccc1O as the compound, how does the “activity change, negative = cytotoxic” value read?
A: inactive: 3.52%

Q: Which “activity change, negative = cytotoxic” value does the source give for C[As](=O)(O)c1cccc(C(=O)O)c1 here?
A: inactive: 2.18%

Q: For COc1cc(C(=O)NCC2(N3CCOCC3)CCCCC2)ccc1OCC(C)C, which “activity change, negative = cytotoxic” value is on record?
A: inactive: -6.56%

Q: Which “activity change, negative = cytotoxic” value does the source give for [N-]=[N+]=NC1CCCCC1NC(=O)c1cc([N+](=O)[O-])cc([N+](=O)[O-])c1 (stereo unspecified) here?
A: inactive: 15.4%

Q: Which “activity change, negative = cytotoxic” value does the source give for Cc1ccc(OP(=O)(Nc2ccc([N+](=O)[O-])cn2)Oc2ccc(C)cc2)cc1 here?
A: inactive: 1.75%

Q: Which “activity change, negative = cytotoxic” value does the source give for ClCCN(CCCl)c1ccc(CC2C=CC=C2)cc1 here?
A: inactive: 9.84%

Q: For O=[N+]([O-])c1cc(Oc2ccc([N+](=O)[O-])cc2C(F)(F)F)cc([N+](=O)[O-])c1, which “activity change, negative = cytotoxic” value is on record?
A: inactive: -14.6%

Q: Which “activity change, negative = cytotoxic” value does the source give for COc1ccc(N/C(=N/P(=O)(N2CCOCC2)N2CCOCC2)N2CCOCC2)cc1 here?
A: inactive: -1.87%

Q: Which “activity change, negative = cytotoxic” value does the source give for Cc1c2c(nc3ccccc13)SC(C(Cl)Cl)C2 (stereo unspecified) here?
A: inactive: 1.36%

Q: Which “activity change, negative = cytotoxic” value does the source give for O=C(OC1CN2CCC1CC2)C12CC3CC(CC(C3)C1)C2 (stereo unspecified) here?
A: inactive: -12.9%

Q: Which “activity change, negative = cytotoxic” value does the source give for Cc1cc(=O)[nH]c(N[N+](=O)[O-])n1 here?
A: inactive: 4.93%

Q: With O=P1(N(CCCl)CCCl)OCCCN1CCCl (stereo unspecified) as the compound, how does the “activity change, negative = cytotoxic” value read?
A: inactive: -0.841%

Q: For O=P1(N(CCCl)CCCl)Nc2ccccc2N1, which “activity change, negative = cytotoxic” value is on record?
A: inactive: 2.64%

Q: With COc1ccc2nc(NP(=O)(c3ccccc3)c3ccccc3)sc2c1 as the compound, how does the “activity change, negative = cytotoxic” value read?
A: inactive: 3.91%

Q: Which “activity change, negative = cytotoxic” value does the source give for COc1cc(I)ccc1[As](=O)(O)O here?
A: inactive: -0.652%

Q: Which “activity change, negative = cytotoxic” value does the source give for O=C(OC1CN2CCC1CC2)c1cccc([N+](=O)[O-])c1 (stereo unspecified) here?
A: inactive: -0.732%

Q: For CCOC(=O)c1ccc(NC(=O)C(C)(CCl)SC)cc1 (stereo unspecified), which “activity change, negative = cytotoxic” value is on record?
A: inactive: -1.73%

Q: With COP1(=S)c2c(C)nn(CCC#N)c2N=C(c2ccc(F)cc2)N1C (stereo unspecified) as the compound, how does the “activity change, negative = cytotoxic” value read?
A: inactive: 3.94%

Q: For COC(=O)C1(C)COP(=O)(N2CCCC2)OC1 (stereo unspecified), which “activity change, negative = cytotoxic” value is on record?
A: inactive: 6.37%

Q: For O=C(O)C(=O)c1ccc(N(CCCl)CCCl)cc1, which “activity change, negative = cytotoxic” value is on record?
A: inactive: 3.04%

Q: For O=C(COc1ccccc1)OC1CN2CCC1CC2 (stereo unspecified), which “activity change, negative = cytotoxic” value is on record?
A: inactive: 5.78%

Q: For O=C(Nc1ccncc1[N+](=O)[O-])c1ccc([N+](=O)[O-])cc1[N+](=O)[O-], which “activity change, negative = cytotoxic” value is on record?
A: inactive: -7.76%

Q: Which “activity change, negative = cytotoxic” value does the source give for CCOC(=O)Nc1cccc([As](=O)(O)O)c1 here?
A: inactive: 19%

Q: Which “activity change, negative = cytotoxic” value does the source give for O=P(Nc1ccccn1)(c1cccc2ccccc12)c1cccc2ccccc12 here?
A: inactive: -15.6%

Q: Which “activity change, negative = cytotoxic” value does the source give for Cc1cc(SC(NC=O)C(Cl)(Cl)Cl)ncn1 (stereo unspecified) here?
A: inactive: 4.52%

Q: Which “activity change, negative = cytotoxic” value does the source give for O=[N+]([O-])c1ccc(Nc2ccc(Oc3ccc([N+](=O)[O-])cc3[N+](=O)[O-])cc2)c([N+](=O)[O-])c1 here?
A: inactive: 4.21%

Q: For CCOC(=O)Nc1ccc([As](=O)(O)O)c(O)c1, which “activity change, negative = cytotoxic” value is on record?
A: inactive: 2.22%

Q: Which “activity change, negative = cytotoxic” value does the source give for O=C(O)C(O)c1ccc(N(CCCl)CCCl)cc1 (stereo unspecified) here?
A: inactive: -24.2%

Q: For CC1CCNP(=O)(N(CCCl)CCCl)O1 (stereo unspecified), which “activity change, negative = cytotoxic” value is on record?
A: inactive: -0.376%

Q: For COP(=O)(OC)N1CC1c1ccccc1 (stereo unspecified), which “activity change, negative = cytotoxic” value is on record?
A: inactive: -10.8%

Q: For Cc1cc(SC(NC(=O)c2ccccc2)C(Cl)(Cl)Cl)nc(C(C)C)n1 (stereo unspecified), which “activity change, negative = cytotoxic” value is on record?
A: inactive: 11.3%
